56 compounds from PubChem BioAssay AID2288 (National Center for Advancing Translational Sciences (NCATS), 2010) can be followed below.

Where “and” joins values, the source holds several entries; their conditions need not be identical. Identical values can stand only once. The list shows a part of the results, in another mix than the full data. Calls of active or inactive are those of the source. The call rests on the fitted dose curve; in most records, active means well fitted curve in the direction sought with a large enough effect; inconclusive means small, poorly fitted or top-dose-only effect, or another doubt; inactive means no such curve, though single readings can be large or run the other way.

This test in a line: qHTS Assay for Modulators of miRNAs and/orActivators of miR-21.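 Further: % of control where 0% means no effect; miR-21 action dims this reporter so a rising signal means less miR-21 action.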 The following applies: HeLa miR-21 FLuc reporter, luciferase, 48 h; at 38.3 µM (top of the series). For orientation: In qHTS, concentration-response curves come from the screen itself.
As for `CC1CCN(C(=O)Oc2c(Cl)cc(Cl)c3cccnc23)CC1`, the activity change, positive = activation was inactive: -19.2%.
For `COc1ccccc1OP(C)(=O)Nc1ccccc1Br` (stereo unspecified) the value was inactive: 2.89%; for `CC(C)(C)c1ccc(OP(C)(=O)O)cc1`, inactive: 0.124%; for `Nc1ccc([As](=O)(O)c2ccc(N)cc2)cc1`, inactive: -0.392%.
For `CP(=O)(Nc1ccc(Cl)cc1)Oc1ccc(F)cc1` (stereo unspecified) the value was inactive: -0.633%; for `CCN(/C(=N/P(=O)(N1CCOCC1)N1CCOCC1)N1CCOCC1)c1ccc(OC)cc1`, inactive: -1.54%; for `O=C(OCCCN1CCCC1)C(O)(c1ccccc1)C1CCCCC1` (stereo unspecified), inactive: -2.29%.
For `O=[N+]([O-])c1cccc2n[nH]nc12` the value was inactive: -9.32%; for `CC(=O)N1C2C3N(C(C)=O)C1C1N(C(C)=O)C(C(N1C(C)=O)N3C(C)=O)N2C(C)=O`, inactive: -1.28%.
Take `COc1ccccc1OP(C)(=O)Nc1c(C)n(C)n(-c2ccccc2)c1=O` (stereo unspecified): the activity change, positive = activation is inactive: -4.51%.
As for `CCc1ccc(OP(C)(=O)Nc2cccnc2)cc1` (stereo unspecified), the activity change, positive = activation is inactive: 7.47%.
For `O=[N+]([O-])c1cc([N+](=O)[O-])c(CCNc2ccccc2)c([N+](=O)[O-])c1` the value was inactive: 20.6%.
For `CP(=O)(Oc1ccccc1)N1CCOC1=O` (stereo unspecified) the value was inactive: -2.85%; for `Cc1ccc(NP(=O)(Oc2ccccc2)Oc2ccccc2)nc1`, inactive: 5.22%.
In the case of `COc1ccc(OP(C)(=O)Nc2ccc(Br)cc2)cc1` (stereo unspecified), the activity change, positive = activation is inactive: -12.8%.
For `COc1ccc(C2=NCC(CBr)S2)cc1` (stereo unspecified) the value was inactive: -6.38%.
For `CCN(CC)CC(O)COC(=O)C(O)(c1ccccc1)C1CCCCC1` (stereo unspecified) the value was inactive: -6.04%; for `O=[N+]([O-])c1cccc(NC2=NCC(CBr)S2)c1` (stereo unspecified), inactive: -0.978%.
Regarding `O=C(O)CNc1ccc([As](=O)(O)O)cc1`, the activity change, positive = activation is inactive: 1.53%.
For `CC(C)(C)C(=O)NC(Sc1ccncn1)C(Cl)(Cl)Cl` (stereo unspecified) the value was inactive: -1.15%.
As for `O=[N+]([O-])c1ncn(CCn2ncnc2[N+](=O)[O-])n1`, the activity change, positive = activation was inactive: 4.12%.
For `O=C(Nc1cc([As](=O)(O)O)ccc1O)c1ccccc1` the value was inactive: -0.841%; for `CCOC(=O)c1ccc(NP(C)(=O)Oc2ccc(Cl)cc2)cc1` (stereo unspecified), inactive: -5.48%; for `CP(=O)(OC12CC3CC(CC(C3)C1)C2)OC12CC3CC(CC(C3)C1)C2`, inactive: -1.42%.
For `CCN(N=Nc1nonc1N)c1nonc1N`, the activity change, positive = activation is inactive: -4.88%.
For `CP(=O)(Nc1ccc(Cl)cc1Cl)Oc1ccccc1` (stereo unspecified) the value was inactive: -6.7%; for `CP(=O)(OCCOc1ccccc1)OCCOc1ccccc1`, inactive: -8.69%; for `Nc1cccc2ccc([As](=O)(O)O)cc12`, inactive: 2.79%.
On to `Cc1nc2ccc3ccccc3c2o1.O=[N+]([O-])c1cc([N+](=O)[O-])c(O)c([N+](=O)[O-])c1`, for which the activity change, positive = activation was inactive: -29.2%.
As for `O=[N+]([O-])c1cc([N+](=O)[O-])c(CCN2CCOCC2)c([N+](=O)[O-])c1`, the activity change, positive = activation is inactive: 6.69%.
Take `COc1ccccc1OP(C)(=O)Nc1ccc(C)c(C)c1` (stereo unspecified): the activity change, positive = activation was inactive: -8.97%.
For `Cc1ccc(NP(=O)(Oc2ccccc2F)Oc2ccccc2F)nc1` the value was inactive: -1.18%.
As for `Cc1cc(SC(NC(=O)c2ccc(F)cc2)C(Cl)(Cl)Cl)ncn1` (stereo unspecified), the activity change, positive = activation was inactive: -8.8%.
Take `CCOP(=O)(Nc1ccccc1)OCC`: the activity change, positive = activation was inactive: -0.615% and inactive: -8.29%.
For `COc1ccc(OP(C)(=O)Nc2ccccc2Br)cc1` (stereo unspecified) the value was inactive: -1.1%; for `CC(=O)Nc1ccc([As](=O)(O)O)cc1`, inactive: -2.81%.
For `O=C(O)c1ccccc1[As](=O)(O)O` the value was inactive: 7.39%; for `O=P(Nc1nc2ccc(Cl)cc2s1)(c1ccccc1)c1ccccc1`, inactive: 4.49%; for `Cc1cc(C)cc(OP(C)(=O)Nc2cccc(C(F)(F)F)c2)c1` (stereo unspecified), inactive: -3.75%.
For `COc1ccccc1OP(C)(=O)Nc1ccc(C)cc1C` (stereo unspecified) the value was inactive: -6.86%.
For `CP(=O)(Nc1ccccn1)Oc1ccccc1` (stereo unspecified), the activity change, positive = activation is inactive: -5.72%.
For `CCc1ccc(OP(C)(=O)O)cc1` the value was inactive: -0.11%.
In the case of `Cc1c(NP(C)(=O)Oc2ccc(C(C)C)cc2)c(=O)n(-c2ccccc2)n1C` (stereo unspecified), the activity change, positive = activation was inactive: 0.0525%.
For `Nc1cc(N)c2nonc2c1[N+](=O)[O-]`, the activity change, positive = activation was inactive: -3.44%.
Regarding `CC(C)CC(=O)NC(Sc1ccc(Cl)cc1)C(Cl)(Cl)Cl` (stereo unspecified), the activity change, positive = activation is inactive: 0.698%.
For `O=C(NC(Sc1ccncn1)C(Cl)(Cl)Cl)c1ccccc1` (stereo unspecified) the value was inactive: -3.43%; for `Oc1ccccc1CNc1ccccn1`, inactive: -19.8%.
For the compound `Cc1ccc(OP(=O)(Nc2nccs2)Oc2ccc(C)cc2)cc1`, the activity change, positive = activation is inactive: -0.875%.
For `COc1ccccc1OP(=O)(Nc1ccc(C)cn1)Oc1ccccc1OC` the value was inactive: -1.94%.
With `COc1ccc(OP(C)(=O)Nc2ccccn2)cc1` (stereo unspecified), the activity change, positive = activation is inactive: -1.06%.
For `CN1CCCC(OC(=O)C(c2ccccc2)c2ccccc2)C1` (stereo unspecified) the value was inactive: -4.88%; for `Clc1ccc(Cl)c(NC2=NCC(CBr)S2)c1` (stereo unspecified), inactive: -4.17%.
As for `CN(C)CCOC(=O)C(O)(c1ccccc1)C1CCCC1` (stereo unspecified), the activity change, positive = activation is inactive: -3.31%.
On to `NC(=O)c1cc([N+](=O)[O-])cc([N+](=O)[O-])c1N`, for which the activity change, positive = activation was inactive: 7.16%.
For `Cc1ccc(N/C(=N/P(=O)(N2CCOCC2)N2CCOCC2)N2CCOCC2)cc1` the value was inactive: 1.17%; for `COc1ccccc1OP(C)(=O)Nc1ccc(Br)cc1` (stereo unspecified), inactive: -6.73%.
